Test results from patent publication US11547300B2, “Methods of treating and imaging tumor micrometastases using photoactive immunoconjugates” (priority 2014, dated 2023).
“Also recorded” adds a separate entry of the source.

Experiments:
EOC micrometastases [1] = settings: mouse, in vivo
EOC micrometastases [2] = assay: Longitudinal fluorescence microendoscopy of tumor burden during treatment; format: in vivo, mouse
Protocol: Longitudinal fluorescence microendoscopy imaging of tumor burden in mice receiving taPIT versus Cet-BPD (without photoactivation) is shown over time (FIGS. 8D and E). […] Note that taPIT was also performed on day 5, thus, some of these mice display reductions in tumor burden prior to day 8. […] Without this correction, treatment efficacy is more difficult to discern due to the intrinsic heterogeneity of microscopic disease. Thus, quantitative micrometastatic burden imaging will be critical for evaluation of treatment efficacy in preclinical and clinical studies of residual microscopic disease.
In vivo fluorescence microendoscopy.
Fluorescence microendoscopy image analysis.

[3] = system: human EOC cells (NIH:OVCAR5) micrometastases; assay: TaPIT efficacy: micrometastatic burden by qRT-PCR; format: in vivo, mouse
Protocol: To explore the potency of high-dose taPIT against microscopic tumors in large cavities, EOC mice bearing disseminated micrometastases were treated using a diffusing tip fiber for wide-field irradiation (FIG. 4F). A quantitative reverse transcription polymerase chain reaction (qRT-PCR) assay was employed to assess the number of viable, human EOC cells rigorously in biopsies and entire peritoneal cavities following treatment. Control, untreated EOC mice were characterized for the final tumor burden by qRT-PCR at time points matched to the various treatment courses. Treated mice received intraperitoneal administration of the immunoconjugate in the presence or absence of photoactivation. […] NIR photoactivation for taPIT (2 cycles) achieved a statistically significant mean reduction in tumor burden of 89% relative to untreated mice (FIG. 8B). This level of tumor reduction matches the synergistic reduction found using unconjugated BPD (2 cycles) and cetuximab (4 cycles) in combination. As a benchmark for nearly complete response, taPIT (1 cycle) with follow-up combination platinum- and taxane-based chemotherapy (1 cycle) achieves 97% mean tumor burden reduction (FIG. 8A; a second cycle added no significant benefit). […]

mouse and human EGFR = assay: Cet-BPD binding to mouse and human EGFR, internalization and activation; format: cell-based, murine and human cells
Source text: To address the question of inflated tumor selectivity due to a lack of cross-reactivity with basal mouse EGFR levels, the inventors investigated Cet-BPD binding to both mouse and human EGFR.

[4] = TaPIT toxicology: survival >72 hours after treatment and bowel histology; format: in vivo, mouse
Source text: TaPIT selectively destroys micrometastases. There is a critical need for tumor-selective therapies that can address residual micrometastases. […] The inventors next tested if this tumor-selective activation translates to a reduction in nonspecific phototoxicity.
Intraperitoneal taPIT and chemotherapy. EOC mice were randomized into the following groups: (i) no treatment; (ii) Cet-BPD without taPIT (0 J·cm^−1), 1 cycle; (iii) Cet-BPD without taPIT (0 J·cm^−1), 2 cycles; (iv) Cet-BPD with taPIT (50 J·cm^−1), 2 cycles; and, (v) Cet-BPD with taPIT (50-100 J·cm^−1), combined with 3-5 and 10-15 mg·kg^−1 body weight of cisplatin and paclitaxel, 1-2 cycles. All injections were done i.p. in 1 mL of sterile phosphate-buffered saline. The BPD dose was fixed at 2 mg·kg^−1 body weight. […] Treatment-associated mortality is defined as mice surviving less than 72 hours after treatment. Mice were illuminated 8-24 hours (taPIT) after immunoconjugate injection as follows. Mice were anesthetized with isoflurane during treatment and imaging. The light doses are defined as the energy delivered per unit length of the diffusing fiber tip per peritoneal quadrant (i.e., one-fourth of the total fluence per mouse). The inventors performed i.p. light irradiation as previously described. del Carmen et al., J Natl Cancer Inst 97:1516-1524 (2005). Briefly, all mice were injected i.p. with 2 mL of a 0.1% intralipid solution (Baxter Healthcare) to enhance light scattering. A cylindrically diffusing-tip fiber, connected to a 690 nm diode laser (High Power Devices), was introduced into the peritoneal cavity of a supine anesthetized animal via a centrally placed 14-gauge catheter that traversed the peritoneal wall. The 690 nm light was delivered at an irradiance of 150 (for 50 J·cm^−1 taPIT) or 300 mW·cm^−1 (for 100 J·cm^−1 taPIT). One-fourth of the total light energy was delivered to each intraperitoneal quadrant over equivalent periods.

[5] = ~7 BPD molecules per mAb; cited from earlier work

Tra-BPD(1:5)
pharmacokinetics relative to Cet-BPD (EOC micrometastases [1]): altered pharmacokinetics
tumor-to-tissue ratios relative to Cet-BPD (EOC micrometastases [1]): reduced tumor-to-tissue ratios

Cet-BPD
integrated tumor fluorescence (EOC micrometastases [2]; taPIT, between days 11 and 14): decreased markedly
tumor burden by integrated tumor fluorescence (EOC micrometastases [2]; without photoactivation): increasing tumor burden

Cet-BPD(1:7)
number of EOC cells (qRT-PCR) ([3]; in the absence of photoactivation): trend in reduced number of EOC cells
mean tumor burden reduction ([3]; taPIT (1 cycle) with follow-up platinum- and taxane-based chemotherapy (1 cycle)): 97%
EGFR binding specificity, cellular internalization and activation profiles, murine versus human cells (mouse and human EGFR): similar
fraction of EOC mice surviving taPIT (>72 hours), versus Cet-BPD(1:4) ([4]; 0, 50, 100 J·cm^−1, FIG. 8A): enhanced; also recorded: increased survival
nonspecific phototoxicity compared to Cet-BPD(1:4) ([4]; FIG. 8A): reduced nonspecific phototoxicity
bowel damage by bowel histology ([4]; high-dose taPIT): does not cause bowel damage
BPD quenching [5]: 7 fold
